Measured values published in US10174035B2, “6-morpholinyl-2-pyrazolyl-9H-purine derivatives and their use as PI3K inhibitors” (Daiichi Sankyo Company, Limited, priority 2015, dated 2019).

Protein sequences, listed by entry. Tags and fused reporters are not part of them. Lines headed by an entry give the natural chain unless they say otherwise; changes in a name come on top.
UniProt O00329, whole entry, species assumed: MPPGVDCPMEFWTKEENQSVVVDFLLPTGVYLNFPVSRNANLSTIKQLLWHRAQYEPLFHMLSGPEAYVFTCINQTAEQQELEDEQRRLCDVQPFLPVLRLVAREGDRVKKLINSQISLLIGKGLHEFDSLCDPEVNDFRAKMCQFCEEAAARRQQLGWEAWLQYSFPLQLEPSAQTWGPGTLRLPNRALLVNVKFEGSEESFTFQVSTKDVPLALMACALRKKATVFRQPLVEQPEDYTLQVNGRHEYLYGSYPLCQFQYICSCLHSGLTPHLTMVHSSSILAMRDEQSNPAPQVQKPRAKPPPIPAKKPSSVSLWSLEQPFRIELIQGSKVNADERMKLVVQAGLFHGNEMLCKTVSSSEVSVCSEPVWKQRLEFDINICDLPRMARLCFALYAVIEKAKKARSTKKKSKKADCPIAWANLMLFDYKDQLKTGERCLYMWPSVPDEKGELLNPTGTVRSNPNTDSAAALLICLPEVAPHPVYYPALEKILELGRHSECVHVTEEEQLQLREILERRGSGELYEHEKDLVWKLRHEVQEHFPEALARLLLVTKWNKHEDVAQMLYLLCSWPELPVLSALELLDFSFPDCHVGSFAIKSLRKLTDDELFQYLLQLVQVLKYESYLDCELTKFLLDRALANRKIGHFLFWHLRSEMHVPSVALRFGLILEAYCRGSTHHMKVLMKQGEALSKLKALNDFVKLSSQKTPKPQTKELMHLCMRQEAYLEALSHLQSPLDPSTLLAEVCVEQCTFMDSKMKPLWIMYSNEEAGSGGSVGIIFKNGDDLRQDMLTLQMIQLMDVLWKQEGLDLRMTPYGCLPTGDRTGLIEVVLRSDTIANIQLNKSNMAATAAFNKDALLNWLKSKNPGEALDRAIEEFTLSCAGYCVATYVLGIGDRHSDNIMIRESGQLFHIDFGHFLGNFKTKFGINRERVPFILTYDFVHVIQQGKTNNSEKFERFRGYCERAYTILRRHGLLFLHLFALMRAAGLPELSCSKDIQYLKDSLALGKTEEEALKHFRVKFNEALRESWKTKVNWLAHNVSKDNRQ

Molecular target: recombinant PI3K δ enzyme (Homo sapiens (Human), UniProt O00329)
Test: In vitro enzyme assay (Kinase-Glo luminescent kinase assay), PI3Kδ
Assay type: biochemical
Method: The Kinase-Glo luminescent kinase assay kit (from Promega) was used to measure kinase activity. In this assay, amount of ATP remaining in solution following a kinase reaction is measured. The effect of compounds on PI3Kδ inhibition was carried out by adding 2.29 μg/ml of recombinant PI3K δ enzyme (Proteros, Germany) to reaction mixture containing assay buffer (50 mM HEPES, pH 7.4, 50 mM NaCl, 0.05% CHAPS) supplemented with 10 mM MgCl2, 5 mM DTT, 60 μM Phosphatidyl inositol bisphosphate (PIP2) and 10 μM ATP in the absence or presence of different concentrations of the compounds in a final volume of 15 μl/well, in a 384 well plate. The reaction mixture was incubated for 2 hours at room temperature. At the end of incubation period the equal volume of Kinase-Glo plus (Promega, V3772), was added per well and the luminescence was measured after incubating for 10 minutes at room temperature in dark. Results were calculated by measuring the luminescence units of test samples to blanks containing no enzyme.
The compounds of the present invention were tested for their selectivity for PI3Kδ over PI3Kα, PI3Kβ and PI3Kγ following the above assay using specific recombinant enzymes (Proteros, Germany) for each kinase. Assay condition of kinase assay (PI3Kα, PI3Kβ, PI3Kγ and PI3Kδ) was as follows. Enzyme: 2.29 μg/mL; ATP: 10 μM; PIP2 substrate: 60 μM and Reaction Time: 2 hours.

IC50 [nM] | SMILES
12 | C[C@@H]1CN(C2CCN(C(=O)c3nc4c(N5CCOCC5)nc(-c5cn[nH]c5)nc4[nH]3)CC2)C[C@H](C)O1 [compound 65, {4-[cis-2,6-Dimethylmorpholin-4-yl]piperidin-1-yl}[6-(morpholin-4-yl)-2-(1H-pyrazol-4-yl)-9H-purin-8-yl]methanone]
11 | C[C@@H]1CN(C2CCN(C(=O)c3nc4c(N5CCOCC5)nc(-c5cnn(C)c5)nc4[nH]3)CC2)C[C@H](C)O1 [compound 5, {4-[cis-2,6-Dimethylmorpholin-4-yl]piperidin-1-yl}[2-(1-methyl-1H-pyrazol-4-yl)-6-(morpholin-4-yl)-9H-purin-8-yl]methanone]
6 | Cc1nn(C)cc1-c1cc(N2CCOCC2)c2nc(C(=O)N3CCC(N4C[C@@H](C)O[C@@H](C)C4)CC3)[nH]c2n1 [compound 113, {4-[cis-2,6-Dimethylmorpholin-4-yl]piperidin-1-yl}[5-(1,3-dimethyl-1H-pyrazol-4-yl)-7-(morpholin-4-yl)-3H-imidazo[4,5-b]pyridin-2-yl]methanone]
